The test has as its system C9-500 BAC mice. The test can be described thus: Metformin in drinking water in C9-500 BAC transgenic mice (C9orf72 ALS/FTD model). The settings on record: for GA aggregates in the retrosplenial cortex: vs C9 controls. The format is in vivo.

On to `CN(C)C(=N)NC(=N)N` [metformin], for which the “DigiGait parameters improved, of eight that differed between untreated C9 and NT” value (Group A, treated from 2 months for 3 months, 5 mg/ml in drinking water, vs C9 water group) is reported as “six of these parameters improved”. Also, the “GA aggregates in the retrosplenial cortex” value is “decreased numbers of GA aggregates” (Group A, treatment begun presymptomatic (8 wks)) and “decreased numbers of GA aggregates” (Group B, treatment begun symptomatic (6 mos)). Moreover, where the note is “Group A, vs untreated C9 animals”, the “GFAP IHC staining (neuroinflammation marker)” value is listed as “significantly reduced”. For the same compound, the “open field center time” value (Group A, vs untreated C9 mice) was “increased center time”.
